molecular target: T1, 20S proteasome chymotrypsin-like activity (Bos taurus, UniProt Q32KL2); test: Kinetics of inhibition of 20S proteasome chymotrypsin-like activity (Suc-LLVY-AMC); format: biochemical, bovine; settings: compound 12.5 μM; 25° C.
T1 construct: from tissue; host or cells: bovine brain
Method: Experiments involving the proteasome were performed as follows: 20S proteasome (˜5 ng/μl) in 10 mM Tris-HCl, pH 7.5, 1 mM EDTA was incubated at 25° C. in the presence of lactacystin or lactacystin analogs in DMSO or MeOH [not exceeding 5% (v/v)]. Aliquots for fluorescence assay were removed at various times following addition of compound and diluted in 10 mM Tris-HCl, pH 7.5, 1 mM EDTA containing fluorogenic peptide substrates (100 μM final). Suc-LLVY-AMC, Cbz-GGR-βNA and […] (AMC=7-amido-4-methylcoumarin; βNA=β-naphthylamide) were used to assay for the chymotrypsin-like, trypsin-like and peptidylglutamyl-peptide hydrolyzing activities, respectively.
Fluorescent emission at 460 nm with excitation at 380 nm was measured for AMC-containing substrates, and emission at 410 nm with excitation at 335 nm was measured for βNA-containing substrates. The fluorescence assays were conducted at 25° C., each experiment was performed at least three times, and values represent mean±standard deviation.
The reversibility of the inhibitory effects was assessed by measuring residual peptidase activity after removal of excess inhibitor by extensive serial dilution/ultrafiltration.

Amino acid sequences for entries named in this document (tags omitted). A change or cut given only in a name is not applied to a line headed by its entry.
UniProt Q32KL2: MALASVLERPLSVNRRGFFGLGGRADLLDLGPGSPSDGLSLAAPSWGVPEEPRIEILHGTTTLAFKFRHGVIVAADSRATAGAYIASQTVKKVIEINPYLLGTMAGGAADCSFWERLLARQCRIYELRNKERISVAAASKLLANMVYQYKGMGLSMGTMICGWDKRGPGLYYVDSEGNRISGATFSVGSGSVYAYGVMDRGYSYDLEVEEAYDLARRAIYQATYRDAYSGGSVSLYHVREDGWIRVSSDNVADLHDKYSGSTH

| Substance | κassoc = κobs/[I], Chymotrypsin-like activity (Suc-LLVY-AMC) |
| --- | --- |
| phenylacetyl lactacystin | 179 ± 19 s^−1M^−1 |
| des(hydroxyisobutyl)-lactacystin | No inhibition |
| lactacystin amide | 306 ± 99 s^−1M^−1 |

Reference: patent US6838477B2, “Lactacystin analogs” (President and Fellows of Harvard College, priority 1995, dated 2005)
